System: H9EOS cells
Assay: Chemical resetting of primed H9EOS cells to naive state; EGFP-positive cells quantified on Day 14 by flow cytometry
Type: cell-based, human
Method: After collecting H9EOS and H9EOS (NK) cells and measuring the cell count in the same manner as for subculturing, they were diluted with AK02N medium containing Y-27632 (Nacalai Tesque, 08945-84) and iMatrix-511 silk (Nippi, 387-10131) (culture medium for primed pluripotent stem cells) and seeded on a multiwell plate (modified method of G. Guo, et. al., 144, 2748-2763 (2017)). […] The resetting efficiency was quantified by counting the cell count using a flow cytometer, with the EGFP-expressing cells as naive cells.
The mimic used for each miRNA was mirVana miRNA Mimic (Thermo Fisher Scientific). […] Culturing was then carried out according to common resetting protocol, and the EGFP-positive cells were quantified on Day 14 using a flow cytometer.
On Day 1 of the resetting protocol shown in FIG. 2, the 22 plasmids were used, either alone or as a mixture of the 22 plasmids minus one each, for transfection together with the transposase-expressing plasmid (pCAG-PBase), using Lipofectamine Stem Transfection Reagent (Thermo Fisher Scientific, STEM00003). […] Culturing was then carried out according to common resetting protocol, and the EGFP-positive cells were quantified on Day 14 using a flow cytometer.
[…] Culturing was then carried out according to common resetting protocol, and the EGFP-positive cells were quantified on Day 14 using a flow cytometer. […]

BMP2: recombinant human bone morphogenetic protein BMP2 added to medium
resetting efficiency compared to chemical (BMP added to medium on Day 2, VPA-containing cRM-1 (FIG. 12)): highly significant increase
resetting efficiency with respect to chemical (VPA-free cRM-1, miR-98-5p transfected Day 1 combined with BMP2 or BMP4 added Day 2 (FIG. 12)): increase

From patent publication US20250290034A1, “METHOD FOR PRODUCING NAÏVE PLURIPOTENT STEM CELLS” (KYOTO UNIVERSITY, priority 2022, published 2025)
